In test [1] the test system is eosinophil peroxidase (EPX). Particulars: Week 12 (FIG. 8). Here is the method: Eosinophil peroxidase (EPX) is a granule protein uniquely secreted by eosinophils which can be detected and quantified using an enzyme-linked immunosorbent assay (ELISA). EPX is measured from mucosal swabs or sputum samples. […] In embodiments, normal nasal EPX levels are less than about 10 ng/mg of total protein, whereas moderate to severe asthma of the eosinophilic phenotype may be diagnosed as having nasal EPX levels greater than about 10 ng/mg of total protein. […] Normal induced sputum EPX levels may be less than about 200 ng/mL/g recovered sputum, whereas moderate to severe asthma of the eosinophilic phenotype is diagnosed as having induced sputum EPX levels greater than about 200 ng/mL/g recovered sputum.
Evaluation of Efficacy: Blood eosinophil count, changes in pulmonary function (FEV1), Asthma Control Questionnaire (ACQ-6), Asthma Control Questionnaire (ACQ-7), Asthma Quality of Life Questionnaire (AQLQ), exhaled nitric oxide, pharyngeal and nasal eosinophil peroxidase were collected periodically during the study.

The subject of test [2] is subjects with eosinophilic asthma. Here is the method: Pulmonary function is measured by performing a spirometry, which measures forced expiratory volume in is (FEV1), the volume of air moved in the first second of exhalation, this is a well-accepted measure of asthma. Forced vital capacity (FVC) is the total volume of air exhaled during the entire forced expiratory volume (FEV) test. The FEV1/FVC ratio is a calculated measure that may provide a more specific measure of bronchoconstriction, independent of processes such as air trapping. Pulmonary function testing can be tested pre-bronchodilator (after waiting a sufficient time so that all bronchodilator medications have cleared) or post-bronchodilator, typically 15-30 minutes after inhaling a short-acting bronchodilator, such as albuterol. Bronchodilator reversibility (BDR) is calculated and assessed by analyzing FEV1 pre- and post-bronchodilator, and calculating the change both as absolute (ml) and percentage change.
Evaluation of Efficacy: Blood eosinophil count, changes in pulmonary function (FEV1), Asthma Control Questionnaire (ACQ-6), Asthma Control Questionnaire (ACQ-7), Asthma Quality of Life Questionnaire (AQLQ), exhaled nitric oxide, pharyngeal and nasal eosinophil peroxidase were collected periodically during the study. […]

The test system of the next test is blood eosinophils. As to conditions: Week 12 (primary endpoint).

The structures appear in SMILES notation. Where two headings read alike, the source gives them in different places.

In the case of `CCCN[C@@H]1CCc2nc(N)sc2C1` [dexpramipexole, (6R)-2-amino-4,5,6,7-tetrahydro-6-(propylamino) benzothiazole], the “Ratio of nasal tissue EPX to baseline compared with placebo” value in test [1] (150 mg/day) and in test [1] (300 mg/day) was “significant lowering” each time. Also, in test [2] (150 mg/day, Week 12), the “FEV1 difference versus Placebo LSM” value is 0.0131 L. In test [2] (Week 8, pooled dexpramipexole arms, <50% AEC reduction at Week 12), the “Pre-Bronchodilator FEV1 Change from Baseline LSM” value amounted to 0.131 L. Moreover, the “Blood absolute eosinophil count, ratio to baseline geometric LS mean” value in the test on blood eosinophils (75 mg/day) is 0.4031; in the test with blood eosinophils (150 mg/day) it was 0.3056; in the test with blood eosinophils (300 mg/day) it was 0.2051. Also, the “Blood absolute eosinophil count, ratio vs Placebo geometric LS mean (95% CI)” value is reported as 0.4489 in the test with blood eosinophils (75 mg/day), 0.3403 in the test on blood eosinophils (150 mg/day) and 0.2283 with blood eosinophils (300 mg/day).

The values are drawn from patent US20240041840A1 (Areteia Therapeutics, Inc., priority 2020, published 2024).
